In the test the target is T1, BuChE (from human serum) (Homo sapiens, UniProt P06276).
T1 construct: human BuChE purified by human serum; from tissue; host or cells: human serum
Put plainly: biochemical. The method, then:
All of the assay of acetylcholinesterase (AChE) and butyrylcholinesterase (BuChE) were performed according to the method described by Ellman et al. using the rat AChE purified from the rat brain and human BuChE purified by human serum. In an enzymatic reaction medium contained different concentration of tested compounds and AChE suspended in the phosphate buffer solution at pH 7.2. After 30 min at room temperature, acetylthiocholine iodide and 5.5′-dithiobis-2-nitrobenzoic acid (DNTB) were added and the reaction mixture incubated at 37 °C for 60 min. […] The parallel control experiment was carried without tested compounds in the reaction mixture. For BuChE inhibitory assay, the procedure described above was followed except for the use of enzyme and substrate, instead of which butyrylcholinesterase and butyrylthiocholine chloride were used, respectively. Assays were done with a blank containing all compounds except AChE or BuChE in order to account for nonenzymatic reactions. Each inhibitory test was conducted in triplicate. […] Each concentration was assayed in triplicate and data were expressed as the mean ± SEM.

The chains behind the UniProt entries cited, without tags or fusion partners. Residues count along the entry.
UniProt P06276, 29-602: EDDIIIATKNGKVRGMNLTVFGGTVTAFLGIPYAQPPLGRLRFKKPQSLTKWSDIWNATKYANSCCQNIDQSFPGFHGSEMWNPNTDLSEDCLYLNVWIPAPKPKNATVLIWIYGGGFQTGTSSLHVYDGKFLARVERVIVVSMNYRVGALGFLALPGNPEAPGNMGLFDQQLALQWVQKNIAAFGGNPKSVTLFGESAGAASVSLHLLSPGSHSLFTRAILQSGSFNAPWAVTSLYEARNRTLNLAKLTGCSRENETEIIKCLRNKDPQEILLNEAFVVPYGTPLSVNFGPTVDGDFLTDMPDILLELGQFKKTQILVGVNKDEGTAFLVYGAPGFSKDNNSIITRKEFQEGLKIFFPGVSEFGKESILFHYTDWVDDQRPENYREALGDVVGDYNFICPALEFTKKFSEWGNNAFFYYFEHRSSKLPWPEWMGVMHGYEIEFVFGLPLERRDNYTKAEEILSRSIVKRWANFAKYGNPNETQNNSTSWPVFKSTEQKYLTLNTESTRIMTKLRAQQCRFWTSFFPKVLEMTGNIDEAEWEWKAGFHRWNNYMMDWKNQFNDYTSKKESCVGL

SMILES strings stand for the structures.

With `CC(C)NP(=O)(NC(C)C)OP(=O)(NC(C)C)NC(C)C` [ISO-OMPA, tetraisopropyl-pyrophosph-oramide, reference compound], the IC50 – broadly, the concentration that inhibits the measured activity by half – worked out at 720 nM.

These data come from PMC6155837, “Design, Synthesis, and Biological Evaluation of a New Series of Biphenyl/Bibenzyl Derivatives Functioning as Dual Inhibitors of Acetylcholinesterase and Butyrylcholinesterase” (Molecules : A Journal of Synthetic Chemistry and Natural …, 2017).
